Test results from patent publication US11458138B2 (Novartis AG, priority 2017, dated 2022).

System: human corneal endothelial cells (CECs)
Assay: Human corneal endothelial cell population expansion: endothelial cell density in vitro
Format: cell-based
Settings: 10 micromolar compound, X-VIVO15 medium, 10 days
Procedure: Cells were cultured at 37° C. in 5% CO2.
For each compound, two sets of cultures were generated. A first set of cultures was fixed in 4% PFA for 20 minutes at room temperature after cells isolated from the cornea had attached to the cell culture dish (typically 24 h after cell plating). A second set of cultures was fixed in 4% PFA for 20 minutes at room temperature 10 days after the first one.
To measure cell density in all fixed cultures, the number of nuclei stained with Sytox Orange (ThermoFisher) were counted per surface area as follows: fixed cell cultures fixed were permeabilized in a solution of 0.3% Triton X-100 (Sigma-Aldrich). Cells were then labeled in a solution of 0.5 micromolar of Sytox Orange in PBS for 5 minutes at room temperature. Nuclei were counted under a Zeiss epifluorescence microscope. The expansion factor was then determined by calculating the ratio of the expanded population of cells to population of seeded cells.

Structure (SMILES)	Endothelial Cell density in vitro [cells/mm^2]
CC(C)(COCCO)Nc1nc(-c2ccncc2)nc2cnccc12 [Example 11, 2-(2-methyl-2-{[2-(pyridin-4-yl)pyrido[3,4-d]pyrimidin-4-yl]amino}propoxy)ethan-1-ol]	1121
CC(C)(O)COCC(C)(C)Nc1nc(-c2ccncc2)nc2cnccc12 [Example 12, 2-methyl-1-(2-methyl-2-{[2-(pyridin-4-yl)pyrido[3,4-d]pyrimidin-4-yl]amino}propoxy)propan-2-ol]	4226
